One test concerns the target mouse TAAR1 (Mus musculus (Mouse), UniProt Q923Y8). The experiment in a line: Radioligand binding assay on mouse TAAR1. To be noted: mouse TAAR1 (first value of the cell), HEK-293 membranes; read-out: Ki (μM) mouse/rat. How it is done:
(§1) Construction of TAAR Expression Plasmids and Stably Transfected Cell Lines
(§2) For the construction of expression plasmids the coding sequences of human, rat and mouse TAAR 1 were amplified from genomic DNA essentially as described by Lindemann et al.. The Expand High Fidelity PCR System (Roche Diagnostics) was used with 1.5 mM Mg^2+ and purified PCR products were cloned into pCR2.1-TOPO cloning vector (Invitrogen) following the instructions of the manufacturer. PCR products were subcloned into the pIRESneo2 vector (BD Clontech, Palo Alto, Calif.), and expression vectors were sequence verified before introduction in cell lines.
(§3) HEK293 cells (ATCC #CRL-1573) were cultured essentially as described by Lindemann et al. (2005). For the generation of stably transfected cell lines HEK293 cells were transfected with the pIRESneo2 expression plasmids containing the TAAR coding sequences (described above) with Lipofectamine 2000 (Invitrogen) according to the instructions of the manufacturer, and 24 hrs post transfection the culture medium was supplemented with 1 mg/ml G418 (Sigma, Buchs, Switzerland). After a culture period of about 10 d clones were isolated, expanded and tested for responsiveness to trace amines (all compounds purchased from Sigma) with the cAMP Biotrak Enzyme immunoassay (EIA) System (Amersham) following the non-acetylation EIA procedure provided by the manufacturer.
Radioligand Binding Assay on Mouse TAAR1
Membrane Preparation and Radioligand Binding.
HEK-293 cells stably expressing mouse TAAR1 were maintained at 37° C. and 5% CO2 in DMEM high glucose medium, containing fetal calf serum (10%, heat inactivated for 30 min at 56° C.), penicillin/streptomycin (1%), and 375 μg/ml geneticin (Gibco). Cells were released from culture flasks using trypsin/EDTA, harvested, washed twice with ice-cold PBS (without Ca^2+ and Mg^2+), pelleted at 1,000 rpm for 5 min at 4° C., frozen and stored at −80° C. Frozen pellets were suspended in 20 ml HEPES-NaOH (20 mM, pH 7.4) containing 10 mM EDTA and homogenized with a Polytron (PT 6000, Kinematica) at 14,000 rpm for 20 s. The homogenate was centrifuged at 48,000×g for 30 min at 4° C. Subsequently, the supernatant was removed and discarded, and the pellet resuspended in 20 ml HEPES-NaOH (20 mM, pH 7.4) containing 0.1 mM EDTA using the Polytron (20 s at 14,000 rpm). This procedure was repeated and the final pellet resuspended in HEPES-NaOH containing 0.1 mM EDTA and homogenized using the Polytron. Typically, aliquots of 2 ml membrane portions were stored at −80° C. With each new membrane batch the dissociation constant (Kd) was determined via a saturation curve. The TAAR1 radioligand ^3[H]-(S)-4-[(ethyl-phenyl-amino)-methyl]-4,5-dihydro-oxazol-2-ylamine (described in WO 2008/098857) was used at a concentration equal to the calculated Kd value, that was usually around 0.7 nM, resulting in the binding of approximately 0.5% of the radioligand and a specific binding representing approximately 70% of the total binding. Nonspecific binding was defined as the amount of ^3[H]-(S)-4-[(ethylphenyl-amino)-methyl]-4,5-dihydro-oxazol-2-ylamine bound in the presence of 10 μM unlabeled ligand. All compounds were tested at a broad range of concentrations (10 pM to 10 μM) in duplicates. […] The 96 deep well plates were incubated for 1 hr at 4° C. Incubations were terminated by rapid filtration through Unifilter-96 plates (Packard Instrument Company) and glass filters GF/C (Perkin Elmer) presoaked for 1 hr in polyethylenimine (0.3%) and washed 3 times with 1 ml of cold binding buffer. After addition of 45 μl of Microscint 40 (PerkinElmer) the Unifilter-96 plate was sealed and after 1 hr the ratioactivity counted using a TopCount Microplate Scintillation Counter (Packard Instrument Company).

By UniProt entry, the sequences of proteins in these tests, tags left out.
UniProt Q923Y8, whole entry: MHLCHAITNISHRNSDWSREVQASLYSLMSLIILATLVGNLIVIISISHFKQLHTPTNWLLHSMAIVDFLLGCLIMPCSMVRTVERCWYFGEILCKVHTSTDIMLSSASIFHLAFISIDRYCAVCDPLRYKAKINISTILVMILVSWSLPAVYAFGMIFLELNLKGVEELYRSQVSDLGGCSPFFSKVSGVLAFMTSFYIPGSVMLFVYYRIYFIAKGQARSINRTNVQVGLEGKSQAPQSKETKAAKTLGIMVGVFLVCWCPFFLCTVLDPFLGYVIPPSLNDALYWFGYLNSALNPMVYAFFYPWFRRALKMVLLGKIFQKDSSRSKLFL
UniProt Q923Y9, whole entry: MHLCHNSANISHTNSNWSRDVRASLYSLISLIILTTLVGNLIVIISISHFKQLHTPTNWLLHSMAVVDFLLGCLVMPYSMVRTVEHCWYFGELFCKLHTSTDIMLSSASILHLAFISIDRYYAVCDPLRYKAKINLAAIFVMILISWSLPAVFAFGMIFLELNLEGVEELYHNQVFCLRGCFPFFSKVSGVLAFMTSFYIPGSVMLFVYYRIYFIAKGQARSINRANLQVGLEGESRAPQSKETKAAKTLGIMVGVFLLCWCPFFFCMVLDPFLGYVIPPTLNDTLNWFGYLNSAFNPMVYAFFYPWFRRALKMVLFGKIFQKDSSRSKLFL

A further test addresses rat TAAR1 (Rattus norvegicus (Rat), UniProt Q923Y9). The experiment in a line: Radioligand binding assay on rat TAAR1. To be noted: rat TAAR1 (second value of the cell), HEK-293 membranes; read-out: Ki (μM) mouse/rat. How it is done:
as §1, §2, §3
Radioligand Binding Assay on Rat TAAR1
Membrane Preparation and Radioligand Binding
HEK-293 cells stably expressing rat TAAR1 were maintained at 37° C. and 5% CO2 in DMEM high glucose medium, containing fetal calf serum (10%, heat inactivated for 30 min at 56° C.), penicillin/streptomycin (1%), and 375 μg/ml geneticin (Gibco). […] With each new membrane batch the dissociation constant (Kd) was determined via a saturation curve. […] After addition of 45 μl of Microscint 40 (PerkinElmer) the Unifilter-96 plate was sealed and after 1 hr the ratioactivity counted using a TopCount Microplate Scintillation Counter (Packard Instrument Company).

On to `Brc1ccc(Nc2ccc([C@@H]3CNCCO3)cn2)nc1` [Example 108, (R)-5-Bromo-N-(5-(morpholin-2-yl)pyridin-2-yl)pyridin-2-amine], for which the Ki on mouse TAAR1 worked out at 0.0122 µM.

For the compound `FC(F)(F)COc1cnc(Nc2ccc([C@@H]3CNCCO3)cc2Cl)nc1` [Example 184, ((R)-2-Chloro-4-morpholin-2-yl-phenyl)-[5-(2,2,2-trifluoro-ethoxy)-pyrimidin-2-yl]-amine], the Ki on mouse TAAR1 and at rat TAAR1 was 0.002 µM throughout.

In the case of `Fc1cc([C@@H]2CNCCO2)ccc1Nc1ncc(C2CC2)cn1` [Example 118, (5-Cyclopropyl-pyrimidin-2-yl)-((R)-2-fluoro-4-morpholin-2-yl-phenyl)-amine], the Ki at mouse TAAR1 amounted to 0.0038 µM.

As to `Clc1cc([C@@H]2CNCCO2)ccc1Nc1ncc(C2CC2)cn1` [Example 170, (R)—N-(2-Chloro-4-(morpholin-2-yl)phenyl)-5-cyclopropylpyrimidin-2-amine], the Ki stood at 0.0016 µM on mouse TAAR1 and 0.0012 µM at rat TAAR1.

Take `Brc1cnc(Nc2ccc([C@@H]3CNCCO3)cc2)nc1` [Example 94, (5-Bromo-pyrimidin-2-yl)-((R)-4-morpholin-2-yl-phenyl)-amine]: the Ki on mouse TAAR1 came to 0.0035 µM.

With `Cc1cc([C@H]2CNCCO2)ccc1Nc1ncc(C2CC2)cn1` [Example 111, (5-Cyclopropyl-pyrimidin-2-yl)-((S)-2-methyl-4-morpholin-2-yl-phenyl)-amine], the Ki at mouse TAAR1 stood at 0.0044 µM.

With `Fc1cc([C@H]2CNCCO2)ccc1Nc1ncc(C2CC2)cn1` [Example 119, (5-Cyclopropyl-pyrimidin-2-yl)-((S)-2-fluoro-4-morpholin-2-yl-phenyl)-amine], the Ki at mouse TAAR1 was 0.0025 µM.

Regarding `Clc1cc(C2CNCCO2)ccc1Nc1ncc(C2CC2)cn1` (racemic) [Example 149, (RS)—N-(2-Chloro-4-(morpholin-2-yl)phenyl)-5-cyclopropylpyrimidin-2-amine], the Ki on rat TAAR1 is 0.0014 µM.

In the case of `Fc1cc(C2CNCCO2)ccc1Nc1ccc(Cl)cn1` (racemic) [Example 99, (RS)-5-Chloro-N-(2-fluoro-4-(morpholin-2-yl)phenyl)pyridin-2-amine], the Ki on mouse TAAR1 is 0.0008 µM.

Consider `Fc1cc([C@H]2CNCCO2)ccc1Nc1ncc(Br)cn1` [Example 127, (5-Bromo-pyrimidin-2-yl)-((S)-2-fluoro-4-morpholin-2-yl-phenyl)-amine], for which the Ki on mouse TAAR1 came out at 0.003 µM.

In the case of `Clc1cc([C@H]2CNCCO2)ccc1Nc1ncc(C2CC2)cn1` [Example 171, (S)—N-(2-Chloro-4-(morpholin-2-yl)phenyl)-5-cyclopropylpyrimidin-2-amine], the Ki on mouse TAAR1 came out at 0.0008 µM.

Turning to `Fc1cc([C@@H]2CNCCO2)ccc1Nc1ncc(Br)cn1` [Example 126, (5-Bromo-pyrimidin-2-yl)-((R)-2-fluoro-4-morpholin-2-yl-phenyl)-amine], the Ki on mouse TAAR1 came to 0.004 µM.

As to `Cc1cc([C@@H]2CNCCO2)ccc1Nc1ncc(C2CC2)cn1` [Example 110, (5-Cyclopropyl-pyrimidin-2-yl)-((R)-2-methyl-4-morpholin-2-yl-phenyl)-amine], the Ki on mouse TAAR1 came to 0.0026 µM.
